According to patent US10570080B2, “Perfume ketones” (Givaudan, S.A., priority 2015, dated 2020):

How the values were obtained:
[1] = test system: Luciferase gene under the control of the ARE-element of the gene AKR1C2 (KeratinoSens cell line); test: KeratinoSens assay for skin sensitization: luciferase gene induction
[2] = test system: KeratinoSens cells; test: KeratinoSens assay: cytotoxicity / cellular viability; conditions: 48 h

Substance: (2E,1′R*,2′S*,6′S*)-2-Methyl-1-(1′,2′,6′-trimethylcyclohex-3′-en-1′-yl)but-2-en-1-one [Example 6]
- Concentration for 1.5-fold gene induction (EC 1.5 in μM) ([1]; KeratinoSens, 48 h, n.i. = no induction above threshold of 1.5): 48.8 µM
- Imax (fold maximal gene induction) ([1]; KeratinoSens, 48 h incubation, 0.98 to 2000 μM, vs DMSO controls): 1.64 fold
- marginal gene induction ([1]; at 125 μM only): 1.67 fold
- Concentration for 50% Cytotoxicity [2]: 89.3 µM
